This passage reports inhibition results from PubChem BioAssay AID743280 (The Scripps Research Institute Molecular Screening Center, 2014).

Protein sequences, listed by entry. Tags and fused reporters are not part of them.
UniProt Q9NZ20, whole entry: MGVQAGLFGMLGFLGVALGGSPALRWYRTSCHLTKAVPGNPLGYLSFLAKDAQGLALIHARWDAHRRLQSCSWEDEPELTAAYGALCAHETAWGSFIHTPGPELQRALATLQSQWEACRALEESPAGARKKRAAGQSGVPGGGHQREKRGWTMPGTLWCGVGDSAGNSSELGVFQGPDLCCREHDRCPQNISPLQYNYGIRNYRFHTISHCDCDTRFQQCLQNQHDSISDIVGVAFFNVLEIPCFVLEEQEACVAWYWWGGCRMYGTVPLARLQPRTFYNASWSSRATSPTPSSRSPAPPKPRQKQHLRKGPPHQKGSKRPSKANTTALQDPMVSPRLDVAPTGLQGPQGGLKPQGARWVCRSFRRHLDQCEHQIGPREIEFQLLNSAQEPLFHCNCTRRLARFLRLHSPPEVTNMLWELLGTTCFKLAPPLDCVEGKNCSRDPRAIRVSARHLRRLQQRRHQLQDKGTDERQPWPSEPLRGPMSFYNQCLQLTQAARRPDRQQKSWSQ

This is a selection; strong and weak results do not stand in their true shares. Activity calls are given as the source filed them.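 How the source made its calls: active means mean inhibition across triplicates above the hit cutoff set in the earlier primary screen (cut at about 19% in these data); inactive means the rest.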

In this experiment the target is Group 3 secretory phospholipase A2 (Homo sapiens) (UniProt Q9NZ20). As to the kind of experiment: human group III sPLA2 inhibitors, confirmation, biochemical, QFRET, triplicate (AID 743280).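 Further: 0% = enzyme with DMSO and 100% = DMSO wells lacking enzyme.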 The conditions noted are these: recombinant hGIII-sPLA2, BODIPY PC-A2 QFRET fluorescence; at 12.2 µM; stronger effect = higher value.
As to `CCN1CCC(Nc2ccc(Cl)cc2)CC1`, the inhibition is inactive: 8.43%.
